Here are results for 17 molecules from US9303023B2, “Pyrazole and imidazole derivatives useful as orexin antagonists” (ACTELION PHARMACEUTICALS LTD., priority 2011, dated 2016).

Protein sequences, listed by entry. Tags and fused reporters are not part of them.
UniProt O43614, whole entry: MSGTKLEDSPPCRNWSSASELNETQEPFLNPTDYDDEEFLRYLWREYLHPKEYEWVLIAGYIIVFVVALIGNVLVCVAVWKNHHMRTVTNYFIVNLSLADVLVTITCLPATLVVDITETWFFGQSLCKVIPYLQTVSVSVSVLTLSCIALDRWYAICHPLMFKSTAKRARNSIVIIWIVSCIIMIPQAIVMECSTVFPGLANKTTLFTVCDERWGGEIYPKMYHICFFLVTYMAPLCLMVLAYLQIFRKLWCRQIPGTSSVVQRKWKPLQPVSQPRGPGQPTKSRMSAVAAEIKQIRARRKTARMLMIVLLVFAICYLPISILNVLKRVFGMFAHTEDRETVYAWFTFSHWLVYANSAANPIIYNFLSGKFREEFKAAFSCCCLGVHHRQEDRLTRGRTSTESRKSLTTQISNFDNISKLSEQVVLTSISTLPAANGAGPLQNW

The first test concerns the target human orexin-2 receptor (Homo sapiens (Human), UniProt O43614). In words: In vitro intracellular calcium measurements (FLIPR), antagonism of orexin-A response, OX2. The test is classed as cell-based. To be noted: CHO cells expressing human orexin-2 receptor; 3 nM orexin-A; compound incubation time 120 min. In general terms: A change in cytosolic calcium serves as a functional read-out for many receptors and channels.
Regarding `Cc1cccc(-c2ocnc2C(=O)Nc2c(C)nn(CCn3ccc4ccccc43)c2C)c1` [Example 96, 5-m-Tolyl-oxazole-4-carboxylic acid [1-(2-indol-1-yl-ethyl)-3,5-dimethyl-1H-pyrazol-4-yl]-amide], the IC50 was 183 nM. The same measure, in the same setting: to `Cc1cccc(-c2ocnc2C(=O)Nc2c(C)nn(CCn3cnc4ccccc43)c2C)c1` [Example 97, 5-m-Tolyl-oxazole-4-carboxylic acid [1-(2-benzoimidazol-1-yl-ethyl)-3,5-dimethyl-1H-pyrazol-4-yl]-amide] belongs 457 nM; to `COc1cc2ccn(CCn3nc(C)c(NC(=O)c4ncoc4-c4cccc(C)c4)c3C)c2cn1` [Example 98, 5-m-Tolyl-oxazole-4-carboxylic acid {1-[2-(5-methoxy-pyrrolo[2,3-c]pyridin-1-yl)-ethyl]-3,5-dimethyl-1H-pyrazol-4-yl}-amide], 765 nM; to `COc1cc2c(ccn2CCn2nc(C)c(NC(=O)c3ncoc3-c3cccc(C)c3)c2C)cn1` [Example 99, 5-m-Tolyl-oxazole-4-carboxylic acid {1-[2-(6-methoxy-pyrrolo[3,2-c]pyridin-1-yl)-ethyl]-3,5-dimethyl-1H-pyrazol-4-yl}-amide], 207 nM.

Take `COc1cc2ccn(CCn3nc(C)c(NC(=O)c4ncoc4-c4cccc(C)c4)c3C)c2cc1OC` [Example 100, 5-m-Tolyl-oxazole-4-carboxylic acid {1-[2-(5,6-dimethoxy-indol-1-yl)-ethyl]-3,5-dimethyl-1H-pyrazol-4-yl}-amide]: the IC50 amounted to 472 nM. For `COc1cc2ncn(CCn3cc(NC(=O)c4ncoc4-c4cccc(C)c4)cn3)c2cc1OC` [Example 102, 5-m-Tolyl-oxazole-4-carboxylic acid {1-[2-(5,6-dimethoxy-benzoimidazol-1-yl)-ethyl]-1H-pyrazol-4-yl}-amide], the IC50 was found to be 63 nM. For `Cc1cccc(-c2ocnc2C(=O)Nc2cnn(CCn3ccc4ncccc43)c2)c1` [Example 103, 5-m-Tolyl-oxazole-4-carboxylic acid [1-(2-pyrrolo[3,2-b]pyridin-1-yl-ethyl)-1H-pyrazol-4-yl]-amide], the IC50 was determined as 297 nM. With `Cc1cccc(-c2ocnc2C(=O)Nc2cnn(CCn3ccc4cc(Cl)c(Cl)cc43)c2)c1` [Example 106, 5-m-Tolyl-oxazole-4-carboxylic acid {1-[2-(5,6-dichloro-indol-1-yl)-ethyl]-1H-pyrazol-4-yl}-amide], the IC50 was 81 nM. On the same count and under the same terms, the result for `Cc1cccc(-c2ocnc2C(=O)Nc2cnn(CCn3ccc4cc(Cl)ccc43)c2)c1` [Example 107, 5-m-Tolyl-oxazole-4-carboxylic acid {1-[2-(5-chloro-indol-1-yl)-ethyl]-1H-pyrazol-4-yl}-amide] reads 507 nM; that for `COc1cc2c(ccn2CCn2cc(NC(=O)c3ncoc3-c3cccc(C)c3)cn2)cc1Cl` [Example 108, 5-m-Tolyl-oxazole-4-carboxylic acid {1-[2-(5-chloro-6-methoxy-indol-1-yl)-ethyl]-1H-pyrazol-4-yl}-amide], 40 nM. Regarding `Cc1cccc(-c2ocnc2C(=O)Nc2cnn(CCn3ccc(-c4ccccc4)c3)c2)c1` [Example 109, 5-m-Tolyl-oxazole-4-carboxylic acid {1-[2-(3-phenyl-pyrrol-1-yl)-ethyl]-1H-pyrazol-4-yl}-amide], the IC50 was 864 nM. On the same count and under the same terms, the result for `Cc1cccc(-c2ocnc2C(=O)Nc2cnn(CCNc3nc4cc(Cl)ccc4o3)c2)c1` [Example 112] reads 5070 nM; that for `Cc1cnc(NCCn2cc(NC(=O)c3ncoc3-c3cccc(C)c3)cn2)nc1` [Example 114], 2610 nM.

Take `Cc1cccc(-c2scnc2C(=O)Nc2cnn(CCNc3nc4ccccc4o3)c2)c1` [Example 116]: the IC50 came to 237 nM.

Staying with this test, now noted: CHO cells expressing human orexin-2 receptor; 3 nM orexin-A; compound incubation time of 10 min (#).
Turning to `Cc1cccc(-c2ocnc2C(=O)Nc2cnn(CCNc3ncc4ccccc4n3)c2)c1` [Example 111], the IC50 worked out at 133 nM. Consider `Cc1cccc(-c2ocnc2C(=O)Nc2cnn(CCNc3nc4ccccc4o3)c2)c1` [Example 113], for which the IC50 was determined as 235 nM. On the same count and under the same terms, to `Cc1cccc(-c2ocnc2C(=O)Nc2cnn(CCNc3cnc4ccccc4n3)c2)c1` [Example 115] belongs 286 nM.

What is called IC50 is the point on the concentration scale where inhibition reaches its midpoint.
